Activity calls are given as the source filed them. The rule behind the calls is not given here.
What was measured:
[1] = target: Glycogen synthase kinase-3 beta (Homo sapiens) (UniProt P49841); experiment: Inhibition of GSK3beta (unknown origin) using ULight-PASVPPSPSLSRHSSPHQ(pS)ED as substrate upto 20 uM incubated for 1 hrs in presence of ATP by TR-FRET assay
[2] = target: T1, Cytoplasmic tyrosine-protein kinase BMX (Homo sapiens) (UniProt P51813); experiment: Inhibition of BMX (unknown origin) at 1 uM relative to control
T1 sequence (whole entry): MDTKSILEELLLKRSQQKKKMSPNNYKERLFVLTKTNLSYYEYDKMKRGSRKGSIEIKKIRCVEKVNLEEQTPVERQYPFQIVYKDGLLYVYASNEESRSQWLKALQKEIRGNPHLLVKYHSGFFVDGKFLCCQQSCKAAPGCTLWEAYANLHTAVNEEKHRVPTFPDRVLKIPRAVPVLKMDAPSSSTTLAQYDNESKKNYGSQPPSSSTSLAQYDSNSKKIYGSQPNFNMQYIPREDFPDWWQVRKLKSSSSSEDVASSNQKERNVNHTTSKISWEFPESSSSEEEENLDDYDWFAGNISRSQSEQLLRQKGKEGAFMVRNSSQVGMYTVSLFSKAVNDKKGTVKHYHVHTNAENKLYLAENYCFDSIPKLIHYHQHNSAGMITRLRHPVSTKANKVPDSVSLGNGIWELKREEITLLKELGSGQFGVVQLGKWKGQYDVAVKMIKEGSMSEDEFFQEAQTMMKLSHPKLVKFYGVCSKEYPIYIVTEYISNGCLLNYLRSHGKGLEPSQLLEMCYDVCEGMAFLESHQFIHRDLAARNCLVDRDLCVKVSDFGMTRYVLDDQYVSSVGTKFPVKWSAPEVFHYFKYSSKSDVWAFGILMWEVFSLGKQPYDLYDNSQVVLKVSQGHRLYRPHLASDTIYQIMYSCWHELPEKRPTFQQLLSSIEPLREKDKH

By UniProt entry, the sequences of proteins in these tests, tags left out. Where a name states a change or a piece, a line headed by the entry shows the natural chain unless it says otherwise.
UniProt P49841: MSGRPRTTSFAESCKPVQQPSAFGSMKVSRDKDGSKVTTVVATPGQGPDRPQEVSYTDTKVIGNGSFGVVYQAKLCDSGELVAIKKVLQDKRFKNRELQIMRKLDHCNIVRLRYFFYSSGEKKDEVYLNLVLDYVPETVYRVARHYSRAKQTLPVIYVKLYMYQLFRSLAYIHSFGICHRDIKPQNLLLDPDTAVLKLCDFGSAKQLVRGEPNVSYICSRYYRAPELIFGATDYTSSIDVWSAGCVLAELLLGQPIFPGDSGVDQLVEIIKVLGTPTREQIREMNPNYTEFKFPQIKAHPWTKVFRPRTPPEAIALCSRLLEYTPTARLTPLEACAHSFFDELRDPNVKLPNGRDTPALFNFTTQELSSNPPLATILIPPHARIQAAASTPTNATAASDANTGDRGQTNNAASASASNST
UniProt Q02763: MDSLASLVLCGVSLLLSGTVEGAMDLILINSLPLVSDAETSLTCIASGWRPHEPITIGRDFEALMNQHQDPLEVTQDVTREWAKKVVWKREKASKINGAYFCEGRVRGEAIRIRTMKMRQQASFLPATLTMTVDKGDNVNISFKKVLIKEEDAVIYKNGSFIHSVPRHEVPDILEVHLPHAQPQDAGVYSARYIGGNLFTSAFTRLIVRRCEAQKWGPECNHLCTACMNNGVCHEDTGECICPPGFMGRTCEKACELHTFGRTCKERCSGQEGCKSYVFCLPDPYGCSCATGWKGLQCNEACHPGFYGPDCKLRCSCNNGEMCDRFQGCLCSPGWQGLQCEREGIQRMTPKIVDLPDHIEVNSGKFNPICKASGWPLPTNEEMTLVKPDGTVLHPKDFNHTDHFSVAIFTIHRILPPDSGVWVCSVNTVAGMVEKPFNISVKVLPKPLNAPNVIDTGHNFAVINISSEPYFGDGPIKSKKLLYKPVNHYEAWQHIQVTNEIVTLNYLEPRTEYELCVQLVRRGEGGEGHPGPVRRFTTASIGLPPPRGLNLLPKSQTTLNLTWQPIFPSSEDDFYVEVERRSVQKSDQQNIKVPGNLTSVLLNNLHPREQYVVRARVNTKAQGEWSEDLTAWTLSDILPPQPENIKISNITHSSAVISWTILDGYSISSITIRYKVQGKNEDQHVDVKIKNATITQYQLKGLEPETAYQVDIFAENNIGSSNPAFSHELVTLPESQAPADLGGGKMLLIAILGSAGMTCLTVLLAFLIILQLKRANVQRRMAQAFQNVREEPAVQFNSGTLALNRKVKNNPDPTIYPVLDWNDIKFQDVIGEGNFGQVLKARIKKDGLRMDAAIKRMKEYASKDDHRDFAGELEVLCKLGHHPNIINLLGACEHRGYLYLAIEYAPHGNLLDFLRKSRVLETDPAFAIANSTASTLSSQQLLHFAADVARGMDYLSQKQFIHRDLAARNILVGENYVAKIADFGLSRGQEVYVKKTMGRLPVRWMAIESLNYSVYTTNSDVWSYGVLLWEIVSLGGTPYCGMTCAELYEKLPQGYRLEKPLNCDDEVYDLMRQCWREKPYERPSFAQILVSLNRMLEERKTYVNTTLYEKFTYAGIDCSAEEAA

[3] = target: Cyclin-dependent kinase 2 (Homo sapiens) (UniProt P24941); experiment: Inhibition of CDK2 (unknown origin) using Histone H1 as substrate upto 20 uM incubated in presence of ATP
[4] = target: Angiopoietin-1 receptor (Homo sapiens) (UniProt Q02763); experiment: Inhibition of TIE2 (unknown origin) at 1 uM relative to control
[5] = target: T2, Tyrosine-protein kinase Tec (Homo sapiens) (UniProt P42680); experiment: Inhibition of TEC (unknown origin) at 10 uM relative to control
T2 sequence (whole entry): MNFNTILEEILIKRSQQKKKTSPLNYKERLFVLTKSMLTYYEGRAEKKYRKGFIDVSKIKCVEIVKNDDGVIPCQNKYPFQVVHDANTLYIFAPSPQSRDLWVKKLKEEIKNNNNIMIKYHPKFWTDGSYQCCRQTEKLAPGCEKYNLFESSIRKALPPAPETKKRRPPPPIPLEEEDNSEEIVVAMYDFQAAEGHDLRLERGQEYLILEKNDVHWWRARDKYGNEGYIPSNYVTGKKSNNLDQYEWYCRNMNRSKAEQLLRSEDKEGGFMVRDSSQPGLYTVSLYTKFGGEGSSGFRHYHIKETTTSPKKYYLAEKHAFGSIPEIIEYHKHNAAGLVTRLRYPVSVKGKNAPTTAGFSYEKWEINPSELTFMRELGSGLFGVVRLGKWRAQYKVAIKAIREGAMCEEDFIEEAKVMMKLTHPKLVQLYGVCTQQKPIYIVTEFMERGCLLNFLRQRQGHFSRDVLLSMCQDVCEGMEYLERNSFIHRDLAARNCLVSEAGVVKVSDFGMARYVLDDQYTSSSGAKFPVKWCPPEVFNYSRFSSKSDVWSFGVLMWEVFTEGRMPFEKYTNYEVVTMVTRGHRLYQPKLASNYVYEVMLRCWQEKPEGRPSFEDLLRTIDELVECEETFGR

inhibition [1]	inhibition [2] [%]	inhibition [3]	inhibition [4] [%]	inhibition [5] [%]	SMILES
inactive		inactive			CN(C)c1ccc(-c2cc(-c3ccc(Cl)cc3)nc3nc4ccccc4n23)cc1
inactive		inactive			Cc1ccc(-c2cc(-c3ccc(N4CCOCC4)cc3)n3c(n2)nc2ccccc23)cc1
inactive		inactive			Clc1ccc(-c2cc(-c3ccc(N4CCOCC4)cc3)n3c(n2)nc2ccccc23)cc1
inactive		inactive			COc1ccc(-c2cc(-c3ccc(N4CCOCC4)cc3)n3c(n2)nc2ccccc23)cc1OC
inactive		inactive			COc1ccc(-c2cc(-c3ccc(N4CCOCC4)cc3)n3c(n2)nc2ccccc23)cc1

The remaining lines, values behind:

SMILES	inhibition [1]	inhibition [2] [%]	inhibition [3]	inhibition [4] [%]	inhibition [5] [%]
Cc1ccc(-c2cc(-c3cccc4ccccc34)n3c(n2)nc2ccccc23)cc1	inactive	16	inactive	27	
COc1ccc(-c2cc(-c3ccc4c(c3)OCO4)n3c(n2)nc2ccccc23)cc1	inactive		inactive		
COc1ccc(-c2cc(-c3ccc4c(c3)OCO4)n3c(n2)nc2ccccc23)cc1OC	inactive		inactive		
COc1ccc(-c2cc(-c3ccc(N(C)C)cc3)n3c(n2)nc2ccccc23)cc1OC	inactive		inactive		
Clc1ccc(-c2cc(-c3ccc4c(c3)OCO4)n3c(n2)nc2ccccc23)cc1	inactive		inactive		
COc1ccc(-c2cc(-c3cccc4ccccc34)n3c(n2)nc2ccccc23)cc1OC	inactive		inactive		82
Clc1ccc(-c2cc(-c3cccc4ccccc34)n3c(n2)nc2ccccc23)cc1	inactive		inactive		
Cc1ccc(-c2cc(-c3ccc4c(c3)OCO4)n3c(n2)nc2ccccc23)cc1	inactive		inactive		
COc1ccc(-c2cc(-c3cccc4ccccc34)n3c(n2)nc2ccccc23)cc1	inactive		inactive		
Cc1ccc(-c2cc(-c3ccc(N(C)C)cc3)n3c(n2)nc2ccccc23)cc1	inactive		inactive		
COc1ccc(-c2cc(-c3ccc(N(C)C)cc3)n3c(n2)nc2ccccc23)cc1	inactive		inactive		
